Data as given in patent US6936585B2, “Corticotropin releasing factor 2 receptor agonists” (priority 2002, dated 2005).

How the values were obtained:
CRF1R = target: T1, CRF1R (Homo sapiens, UniProt P34998); assay: CRF1R agonist activation (EC50 / Emax), called comparative CRF binding; format: cell-based; conditions: for EC50: CRF1R EC50; for Emax: read-out: CRF1R Emax
T1 sequence (P34998 24-415): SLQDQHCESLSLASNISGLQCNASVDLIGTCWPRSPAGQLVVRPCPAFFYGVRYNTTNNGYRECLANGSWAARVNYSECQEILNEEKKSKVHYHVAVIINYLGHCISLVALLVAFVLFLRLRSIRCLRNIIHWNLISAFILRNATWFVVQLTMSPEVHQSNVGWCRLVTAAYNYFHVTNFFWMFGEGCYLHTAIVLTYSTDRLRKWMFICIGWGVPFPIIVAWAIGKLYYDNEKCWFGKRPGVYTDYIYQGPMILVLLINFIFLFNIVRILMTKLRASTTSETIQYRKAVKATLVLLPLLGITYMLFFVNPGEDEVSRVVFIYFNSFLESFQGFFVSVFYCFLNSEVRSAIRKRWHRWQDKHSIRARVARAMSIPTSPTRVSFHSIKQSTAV
How it was run: (§1)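 Agonism is scored from cAMP rise, assayed in lysates or through CRE-driven reporter expression, after peptide contact with cells bearing human CRF2R or CRF1R, compared against vehicle-treated cells.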

CRF2R = target: T2, CRF2R (Homo sapiens, UniProt Q13324); assay: CRF2R agonist activation (EC50 / Emax), called comparative CRF binding; format: cell-based; conditions: for Emax: read-out: CRF2R Emax
T2 sequence (Q13324 1-411): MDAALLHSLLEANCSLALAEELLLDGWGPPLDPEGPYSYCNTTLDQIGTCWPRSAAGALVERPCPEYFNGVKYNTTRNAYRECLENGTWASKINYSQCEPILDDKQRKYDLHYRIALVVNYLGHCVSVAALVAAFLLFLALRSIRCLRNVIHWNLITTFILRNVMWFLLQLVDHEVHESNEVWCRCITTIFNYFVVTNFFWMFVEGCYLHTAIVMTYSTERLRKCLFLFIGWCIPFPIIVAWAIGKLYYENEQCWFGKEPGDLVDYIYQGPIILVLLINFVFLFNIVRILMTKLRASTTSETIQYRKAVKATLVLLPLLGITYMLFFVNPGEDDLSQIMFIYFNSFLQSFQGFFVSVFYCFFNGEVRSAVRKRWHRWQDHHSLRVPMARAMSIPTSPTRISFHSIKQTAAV
How it was run: as §1

Structure (SMILES): CC[C@H](C)[C@H](NC(=O)[C@@H](NC(=O)[C@H](CC(=O)O)NC(=O)[C@H](CC(C)C)NC(=O)[C@H](CC(C)C)NC(=O)[C@H](CC(C)C)NC(=O)[C@H](CCCNC(=N)N)NC(=O)[C@H](CC(N)=O)NC(=O)[C@H](CC(N)=O)NC(=O)[C@H](C)NC(=O)[C@H](C)NC(=O)[C@H](CCC(N)=O)NC(=O)[C@H](CCC(N)=O)NC(=O)[C@H](CCCCN)NC(=O)[C@H](CCC(=O)O)NC(=O)[C@H](CCCCN)NC(=O)[C@H](CCC(=O)O)NC(=O)[C@H](CCC(N)=O)NC(=O)[C@H](CCCCN)NC(=O)[C@H](CCC(=O)O)NC(=O)[C@@H](NC(=O)[C@H](CCC(=O)O)NC(=O)[C@@H](NC(=O)[C@H](CCSC)NC(=O)[C@H](CCCCN)NC(=O)[C@H](CCCNC(=N)N)NC(=O)[C@H](CC(C)C)NC(=O)[C@H](CC(C)C)NC(=O)[C@H](Cc1ccccc1)NC(=O)[C@H](Cc1c[nH]cn1)NC(=O)[C@@H]1CCCN1C(=O)[C@H](CC(C)C)NC(=O)[C@H](CC(=O)O)NC(=O)[C@@H](NC(=O)[C@H](CO)NC(=O)[C@@H](NC(=O)[C@@H]1CCCN1C(=O)[C@@H]1CCCN1C(=O)CNC(=O)[C@@H]1CCC(=O)N1)[C@@H](C)CC)[C@@H](C)CC)[C@@H](C)CC)[C@@H](C)CC)[C@@H](C)O)C(N)=O [compound 219]
- EC50 (CRF1R): 80.9 nM
- Emax (CRF1R): 100%
- EC50 (CRF2R): 7.8 nM
- Emax (CRF2R): 98%

Structure (SMILES): CC[C@H](C)[C@H](NC(=O)[C@H](CCC(N)=O)NC(=O)[C@H](C)NC(=O)[C@H](CC(C)C)NC(=O)[C@H](CC(C)C)NC(=O)[C@H](CCC(N)=O)NC(=O)[C@H](C)NC(=O)[C@H](CC(N)=O)NC(=O)[C@H](CC(N)=O)NC(=O)[C@H](C)NC(=O)[C@H](C)NC(=O)[C@H](CCC(N)=O)NC(=O)[C@H](CCC(N)=O)NC(=O)[C@H](CCCCN)NC(=O)[C@H](CCC(=O)O)NC(=O)[C@H](CCCCN)NC(=O)[C@H](CCC(=O)O)NC(=O)[C@H](CCC(N)=O)NC(=O)[C@H](CCCCN)NC(=O)[C@H](CCC(=O)O)NC(=O)[C@@H](NC(=O)[C@H](CCC(=O)O)NC(=O)[C@@H](NC(=O)[C@@H](NC(=O)[C@H](CCCCN)NC(=O)[C@H](CCCNC(=N)N)NC(=O)[C@H](CC(C)C)NC(=O)[C@H](CC(C)C)NC(=O)[C@H](CCC(N)=O)NC(=O)[C@H](Cc1ccccc1)NC(=O)[C@@H]1CCCN1C(=O)[C@H](CC(C)C)NC(=O)[C@H](CC(=O)O)NC(=O)[C@@H](NC(=O)[C@H](CO)NC(=O)[C@@H](NC(=O)[C@@H]1CCCN1C(=O)[C@@H]1CCCN1C(=O)CNC(=O)[C@@H]1CCC(=O)N1)[C@@H](C)CC)[C@@H](C)CC)C(C)C)[C@@H](C)CC)[C@@H](C)CC)C(N)=O [compound 276]
- EC50 (CRF1R): ≥ 1000 nM
- Emax (CRF1R): 75.7%
- EC50 (CRF2R): 22.1 nM
- Emax (CRF2R): 100%

Structure (SMILES): CC[C@H](C)[C@H](NC(=O)[C@@H](NC(=O)[C@H](CC(=O)O)NC(=O)[C@H](CC(C)C)NC(=O)[C@H](CC(C)C)NC(=O)[C@H](CC(C)C)NC(=O)[C@H](CCCNC(=N)N)NC(=O)[C@H](CC(N)=O)NC(=O)[C@H](CC(N)=O)NC(=O)[C@H](C)NC(=O)[C@H](C)NC(=O)[C@H](CCC(N)=O)NC(=O)[C@H](CCC(N)=O)NC(=O)[C@H](CCCCN)NC(=O)[C@H](CCC(=O)O)NC(=O)[C@H](CCCCN)NC(=O)[C@H](CCC(=O)O)NC(=O)[C@H](CCC(N)=O)NC(=O)[C@H](CCCCN)NC(=O)[C@H](CCC(=O)O)NC(=O)[C@@H](NC(=O)[C@H](CCC(=O)O)NC(=O)[C@@H](NC(=O)[C@@H](NC(=O)[C@H](CCCCN)NC(=O)[C@H](CCCNC(=N)N)NC(=O)[C@H](CC(C)C)NC(=O)[C@H](CC(C)C)NC(=O)[C@H](Cc1c[nH]c2ccccc12)NC(=O)[C@@H](NC(=O)[C@@H]1CCCN1C(=O)[C@H](CC(C)C)NC(=O)[C@H](CC(=O)O)NC(=O)[C@@H](NC(=O)[C@H](CO)NC(=O)[C@@H](NC(=O)[C@@H]1CCCN1C(=O)[C@@H]1CCCN1C(=O)CNC(=O)[C@@H]1CCC(=O)N1)[C@@H](C)CC)[C@@H](C)CC)[C@@H](C)O)C(C)C)[C@@H](C)CC)[C@@H](C)CC)[C@@H](C)O)C(N)=O [compound 284]
- Emax (CRF1R): 27.7%
- Emax (CRF2R): 100%

Structure (SMILES): CC[C@H](C)[C@H](NC(=O)[C@@H](NC(=O)[C@H](CC(=O)O)NC(=O)[C@H](CC(C)C)NC(=O)[C@H](CC(C)C)NC(=O)[C@H](CC(C)C)NC(=O)[C@H](C)NC(=O)[C@H](CC(N)=O)NC(=O)[C@H](CC(N)=O)NC(=O)[C@H](C)NC(=O)[C@H](C)NC(=O)[C@H](CCC(N)=O)NC(=O)[C@H](CCC(N)=O)NC(=O)[C@H](CCCCN)NC(=O)[C@H](CCC(=O)O)NC(=O)[C@H](CCCCN)NC(=O)[C@H](CCC(=O)O)NC(=O)[C@H](CCC(N)=O)NC(=O)[C@H](CCCCN)NC(=O)[C@H](CCC(=O)O)NC(=O)[C@@H](NC(=O)[C@H](CCC(=O)O)NC(=O)[C@@H](NC(=O)[C@H](CCSC)NC(=O)[C@H](CCCCN)NC(=O)[C@H](CCCNC(=N)N)NC(=O)[C@H](CC(C)C)NC(=O)[C@H](CC(C)C)NC(=O)[C@H](Cc1ccc(O)cc1)NC(=O)[C@@H](NC(=O)[C@@H]1CCCN1C(=O)[C@H](CC(C)C)NC(=O)[C@H](CC(=O)O)NC(=O)[C@@H](NC(=O)[C@H](CO)NC(=O)[C@@H](NC(=O)[C@@H]1CCCN1C(=O)[C@@H]1CCCN1C(=O)CNC(=O)[C@@H]1CCC(=O)N1)[C@@H](C)CC)[C@@H](C)CC)[C@@H](C)O)[C@@H](C)CC)[C@@H](C)CC)[C@@H](C)O)C(N)=O [compound 232]
- EC50 (CRF1R): ≥ 1000 nM
- Emax (CRF1R): 7%
- EC50 (CRF2R): 45.3 nM
- Emax (CRF2R): 100%

Structure (SMILES): CC[C@H](C)[C@H](NC(=O)[C@H](CCCNC(=N)N)NC(=O)[C@H](C)NC(=O)[C@H](CC(C)C)NC(=O)[C@H](CC(C)C)NC(=O)[C@H](CCCNC(=N)N)NC(=O)[C@H](C)NC(=O)[C@H](CC(N)=O)NC(=O)[C@H](CC(N)=O)NC(=O)[C@H](C)NC(=O)[C@H](C)NC(=O)[C@H](CCC(N)=O)NC(=O)[C@H](CCC(N)=O)NC(=O)[C@H](CCCCN)NC(=O)[C@H](CCC(=O)O)NC(=O)[C@H](CCCCN)NC(=O)[C@H](CCC(=O)O)NC(=O)[C@H](CCC(N)=O)NC(=O)[C@H](CCCCN)NC(=O)[C@H](CCC(=O)O)NC(=O)[C@@H](NC(=O)[C@H](CCC(=O)O)NC(=O)[C@@H](NC(=O)[C@@H](NC(=O)[C@H](CCCCN)NC(=O)[C@H](CCCNC(=N)N)NC(=O)[C@H](CC(C)C)NC(=O)[C@H](CC(C)C)NC(=O)[C@H](Cc1c[nH]c2ccccc12)NC(=O)[C@H](Cc1ccc(O)cc1)NC(=O)[C@@H]1CCCN1C(=O)[C@@H](NC(=O)[C@H](CC(=O)O)NC(=O)[C@@H](NC(=O)[C@H](CO)NC(=O)[C@@H](NC(=O)[C@@H]1CCCN1C(=O)[C@@H]1CCCN1C(=O)CNC(=O)[C@@H]1CCC(=O)N1)[C@@H](C)CC)[C@@H](C)CC)C(C)C)C(C)C)[C@@H](C)CC)[C@@H](C)CC)C(N)=O [compound 373]
- EC50 (CRF1R): ≥ 1000 nM
- Emax (CRF1R): 9%
- EC50 (CRF2R): 11.5 nM
- Emax (CRF2R): 100%

Structure (SMILES): CC[C@H](C)[C@H](NC(=O)[C@H](CCC(=O)O)NC(=O)[C@@H](NC(=O)[C@H](CC(C)C)NC(=O)[C@@H](NC(=O)[C@H](CCCNC(=N)N)NC(=O)[C@H](CC(C)C)NC(=O)[C@H](CC(C)C)NC(=O)[C@H](CCC(N)=O)NC(=O)[C@H](Cc1ccccc1)NC(=O)[C@@H]1CCCN1C(=O)[C@H](CC(C)C)NC(=O)[C@H](CC(=O)O)NC(=O)[C@@H](NC(=O)[C@H](CO)NC(=O)[C@@H](NC(=O)[C@@H]1CCCN1C(=O)[C@@H]1CCCN1C(=O)CNC(=O)[C@@H]1CCC(=O)N1)[C@@H](C)CC)[C@@H](C)CC)[C@@H](C)CC)[C@@H](C)CC)C(=O)N[C@@H](CCC(=O)O)C(=O)N[C@@H](CCCCN)C(=O)N[C@@H](CCC(N)=O)C(=O)N[C@@H](CCC(=O)O)C(=O)N[C@@H](CCCCN)C(=O)N[C@@H](CCC(=O)O)C(=O)N[C@@H](CCCCN)C(=O)N[C@@H](CCC(N)=O)C(=O)N[C@@H](CCC(N)=O)C(=O)N[C@@H](C)C(=O)N[C@@H](C)C(=O)N[C@@H](CC(N)=O)C(=O)N[C@@H](CC(N)=O)C(=O)N[C@@H](C)C(=O)N[C@@H](CC(C)C)C(=O)N[C@@H](CC(C)C)C(=O)N[C@@H](CC(C)C)C(=O)N[C@@H](C)C(=O)N[C@H](C(N)=O)[C@@H](C)O [compound 358]
- EC50 (CRF1R): 99 nM
- Emax (CRF1R): 100%
- EC50 (CRF2R): 5.56 nM
- Emax (CRF2R): 100%
